Measured values published in US12257352B2, “Compositions and methods for delivery of biomacromolecule agents” (The Regents of the University of Michigan, priority 2016, dated 2025).

Assay: Storage stability of sHDL formulations
Assay type: physicochemical
Details: DMPC sHDL stored at 4° C.

With PVLDLFRELLNELLEALKQKLK [22A] the “stability of sHDL suspension” value was “stable for one month”.
